In assay [1] the test system is MCF-7 breast adenocarcinoma cell line. Kind of assay: Sulforhodamine B (SRB) cytotoxicity assay, MCF-7. Particulars: for IC50: read-out: IC50 (μM) MCF-7, SRB assay, 72 h. The class given is cell-based, human.
For assay [2], the system named is HCT-116 colorectal carcinoma cell line. Kind of assay: Sulforhodamine B (SRB) cytotoxicity assay, HCT-116. The following applies: for IC50: read-out: IC50 (μM) HCT-116, SRB assay, 72 h. The format is cell-based, human. (In general: Sulforhodamine B stains cellular protein and so reports cell mass.)
Another assay concerns the target xanthine oxidase (XO) (Homo sapiens, UniProt P47989). Kind of assay: Xanthine oxidase inhibition assay (uric acid formation, spectrophotometric). The format is biochemical. Particulars: for IC50: read-out: IC50 (μM) xanthine oxidase inhibition, IC50 ± SD, triplicate, pH 7.4, 25°C.
The subject of assay [3] is HepG2 hepatocellular carcinoma cell line. Kind of assay: Sulforhodamine B (SRB) cytotoxicity assay, HepG2. The following applies: for IC50: read-out: IC50 (μM) HepG2, SRB assay, 72 h. The class given is cell-based, human.

By UniProt entry, the sequences of proteins in these tests, tags left out.
UniProt P47989, whole entry: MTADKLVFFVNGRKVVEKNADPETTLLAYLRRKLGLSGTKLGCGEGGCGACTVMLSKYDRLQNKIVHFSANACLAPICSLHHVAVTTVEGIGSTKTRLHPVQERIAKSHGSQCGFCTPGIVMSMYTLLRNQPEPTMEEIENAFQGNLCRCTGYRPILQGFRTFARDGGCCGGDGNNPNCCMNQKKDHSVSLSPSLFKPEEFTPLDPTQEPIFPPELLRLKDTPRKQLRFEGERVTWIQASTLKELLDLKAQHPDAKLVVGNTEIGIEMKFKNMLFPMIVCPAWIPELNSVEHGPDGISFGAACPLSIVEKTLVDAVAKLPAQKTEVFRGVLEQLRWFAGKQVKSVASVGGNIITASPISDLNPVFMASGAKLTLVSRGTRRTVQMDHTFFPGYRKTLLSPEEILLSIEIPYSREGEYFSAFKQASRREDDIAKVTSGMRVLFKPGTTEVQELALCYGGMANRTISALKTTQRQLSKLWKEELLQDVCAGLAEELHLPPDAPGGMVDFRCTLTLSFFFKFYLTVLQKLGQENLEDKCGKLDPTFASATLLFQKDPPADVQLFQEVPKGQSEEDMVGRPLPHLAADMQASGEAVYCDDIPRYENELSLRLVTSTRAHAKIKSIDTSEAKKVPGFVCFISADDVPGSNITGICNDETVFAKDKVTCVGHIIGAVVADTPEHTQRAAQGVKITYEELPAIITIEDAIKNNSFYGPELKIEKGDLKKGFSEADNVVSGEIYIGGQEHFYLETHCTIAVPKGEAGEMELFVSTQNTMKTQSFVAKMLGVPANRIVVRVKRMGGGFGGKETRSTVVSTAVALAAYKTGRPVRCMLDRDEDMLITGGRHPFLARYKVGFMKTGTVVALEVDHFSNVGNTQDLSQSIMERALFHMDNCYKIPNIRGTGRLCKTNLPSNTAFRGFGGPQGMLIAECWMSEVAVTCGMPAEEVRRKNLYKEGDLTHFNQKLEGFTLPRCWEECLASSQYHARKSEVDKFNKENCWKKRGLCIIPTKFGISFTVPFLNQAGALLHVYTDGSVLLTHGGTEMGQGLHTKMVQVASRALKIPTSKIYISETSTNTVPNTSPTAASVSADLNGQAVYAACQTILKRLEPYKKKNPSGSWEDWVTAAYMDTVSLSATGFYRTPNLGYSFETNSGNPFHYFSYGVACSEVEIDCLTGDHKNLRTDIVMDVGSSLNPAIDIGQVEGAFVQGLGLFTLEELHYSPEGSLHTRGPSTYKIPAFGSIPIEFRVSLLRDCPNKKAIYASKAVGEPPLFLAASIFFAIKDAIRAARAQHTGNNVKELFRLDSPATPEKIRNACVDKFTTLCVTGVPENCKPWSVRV

For the molecule `Cc1nn(C(=O)c2ccncc2)c(C)c1N=Nc1ccc(Br)cc1`, the “times less potent than doxorubicin” value in assay [1] (MCF-7, relative to doxorubicin) stood at 3.7 times. Besides, the IC50 (as a rule, the concentration that inhibits the measured activity by half) in assay [1] is 17.8 µM; in assay [2], 4.2 µM; on xanthine oxidase (XO) it was 0.83 µM; in assay [3], 4.4 µM. For the same molecule, the “folds more active than unsubstituted derivative” value is listed as > 22 folds in assay [2] (HCT-116, relative to unsubstituted phenyl derivative) and > 22 folds in assay [3] (HepG2, relative to unsubstituted phenyl derivative). The “times more potent than allopurinol (XO inhibition)” value on xanthine oxidase (XO) (relative to allopurinol) is given as 18.03 times.
On to `Cc1nn(C(=O)c2ccncc2)c(C)c1N=Nc1ccc([N+](=O)[O-])cc1`, for which the half-maximal inhibitory concentration (IC50) in assay [1] was 94.2 µM; in assay [2] it was 17.3 µM; on xanthine oxidase (XO) it was 14.5 µM; in assay [3] it was 34.6 µM.

The values above are taken from paper PMC8277517, “Anticolon Cancer Properties of Pyrazole Derivatives Acting through Xanthine Oxidase Inhibition” (Journal of Oncology, 2021).
